Test system: HepG2 cells

4-bromo-3-oxoacetic acid-5-(3-(((1-(4-fluorescein 19 polyA)12-alkyl acetamidophenyl)-1H-1,2,3-triazole-4-methylene)(1-phenylcarbamoylpiperidine)-4-methyl)amino)phenyl)thiophene-2-formic add [compound 5]
transfer efficiency (X-tremeGENEsiRNA transfection reagent (FIG. 9)): over 80%
transfer into cells and positioning in the cells (X-tremeGENEsiRNA transfection reagent, 6 h, laser confocal microscope (FIG. 8B)): may be transferred by the X-tremesiRNA into calls, with most of the compound 5 into the cytoplasm and a few of the compound 5 into the cell nucleus
